These substances were tested against CYP1A2 (Homo sapiens, UniProt P05177). Conditions: 1 μM active ingredient, Rh CYP1A2-mediated phenacetin O-deethylation, test dataset of 202 herb ingredients.
Format: biochemical
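Note: recombinant CYP1A2 incubated for 1 h at 37 °C, with the reaction started by an NADPH-generating system.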

Amino acid sequences for entries named in this document (tags omitted).
UniProt P05177, whole entry: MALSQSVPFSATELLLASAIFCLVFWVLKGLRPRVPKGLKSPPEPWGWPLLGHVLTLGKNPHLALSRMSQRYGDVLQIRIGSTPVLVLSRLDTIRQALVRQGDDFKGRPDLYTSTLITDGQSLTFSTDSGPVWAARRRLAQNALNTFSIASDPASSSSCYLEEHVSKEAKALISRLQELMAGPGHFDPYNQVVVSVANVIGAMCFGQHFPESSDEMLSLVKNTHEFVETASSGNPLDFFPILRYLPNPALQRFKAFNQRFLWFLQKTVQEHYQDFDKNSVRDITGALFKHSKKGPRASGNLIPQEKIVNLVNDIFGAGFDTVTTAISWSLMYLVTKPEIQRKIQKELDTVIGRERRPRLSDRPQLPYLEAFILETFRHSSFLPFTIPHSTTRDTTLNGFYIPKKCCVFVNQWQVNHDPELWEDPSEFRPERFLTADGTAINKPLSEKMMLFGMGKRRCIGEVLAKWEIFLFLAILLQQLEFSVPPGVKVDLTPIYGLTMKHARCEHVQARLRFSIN

Substance | % of Control Indication Activity (Mean) [%]
Evodiamine | > 90
Ginkgolide C | > 90
Hydroxysafflor yellow A | > 90
Icariside II | > 90
Vitexin glucoside | > 90

Reference: paper PMC3116189, “Novel Natural Inhibitors of CYP1A2 Identified by in Silico and in Vitro Screening” (International Journal of Molecular Sciences, 2011)
